This note sets out measurements from patent publication US11382920B2, “Therapeutic effects of Guanabenz treatment in vanishing white matter” (Stichting VUmc, priority 2017, dated 2022).

In the assay the test system is ATF4 expression. Description: Stress-sensitive ATF4 luciferase reporter transfection assay (pNL1.1-mATF4) in U373 cells. It counts as cell-based, human. Conditions: 15 μM compound added with 3 nM thapsigargin for 16 hours. As to the method: FIG. 9. […] ATF4 expression was assessed with a luciferase reporter construct under regulation of the murine Atf4 promoter and 5′ non-coding region. Cells were transfected as described. The ISR was induced by administration of 3 nM thapsigargin (TG) to the cell culture medium. 15 μM ISR modulators Gb, Sephin1 (S1, also a GADD34 inhibitor, but without α2 adrenergic effect) or ISRIB (I, an activator of eIF2B) were added simultaneously with or without TG for 16 hours (e.g. −TG/+Gb and +TG/+Gb). Guanfacin (Gf), an a2 adrenergic receptor agonist without reported GADD34 modulating activity, was included in parallel as negative control. Cell stress modulators Gb and S1 increase ATF4 expression in the presence of TG. This effect was not observed with Gf and was opposite in ISRIB. […]
The a2 adrenergic receptor agonist Guanabenz (Gb) has been reported to also target GADD34 and thereby impact on a negative feedback loop of the ISR [16]. […] Expression from the reporter construct was measured 2 days after transfection with a commercially available chemiluminescent assay and can be directly interpreted as a measure for ATF4 expression.
ATF4 expression was investigated in the absence or presence of ISR activation. The ISR was induced by addition of thapsigargin to the culture medium 16 hours before cells were harvested and ATF4 synthesis was measured. […]
(In general: Reporter assays use an easily measured gene product as a stand-in for the process of interest.)

Consider `NC(N)=N/N=C/c1ccccc1Cl` [Sephin1], for which the “ATF4 expression under stress” value is reported as “increased”.
